Results on 2 substances are retold here after patent publication US20060024786A1, “WASP and N-WASP constructs and methods of expressing such constructs” (Cytokinetics, Inc., priority 2004, published 2006).

Assay [1] addresses full length human N-WASP (Myc-N-WASP-TAP) (human). Nature of the assay: cell-based or functional assay.
Assay [2] addresses full length human WASP (Myc-WASP-TAP) (human). Nature of the assay: cell-based or functional assay.

On to “N_GST_tev_Nck1 (bacterial GST tagged Nck1 protein)”, for which, in assay [1], the Barbed ends % of max. (after subtracting baseline) turned out to be 75%; the Barbed ends, nM (pyrene-actin polymerization assay) turned out to be 3.4 nM; the EC50, nM (activation of actin polymerization) turned out to be 11 nM; the acceleration of actin polymerization (pyrene-actin assay) was 13 fold. In assay [2], this substance returned a Barbed ends % of max. (after subtracting baseline) of 94%; a Barbed ends, nM (pyrene-actin polymerization assay) of 4 nM; an EC50, nM (activation of actin polymerization) of 10 nM; an acceleration of actin polymerization (pyrene-actin assay) of 13 fold.
For “N_GST_tev_Rac1 GTP (bacterial GST tagged Rac1 protein) (enzyme)”, the figures for the EC50, nM (activation of actin polymerization) in assay [1] and in assay [2] were 31 nM and 80 nM, respectively.
